# PubChem BioAssay AID2014 (Sanford-Burnham Center for Chemical Genomics, 2009)
# By UniProt entry, the sequences of proteins in these tests, tags left out.
# UniProt P11940, whole entry: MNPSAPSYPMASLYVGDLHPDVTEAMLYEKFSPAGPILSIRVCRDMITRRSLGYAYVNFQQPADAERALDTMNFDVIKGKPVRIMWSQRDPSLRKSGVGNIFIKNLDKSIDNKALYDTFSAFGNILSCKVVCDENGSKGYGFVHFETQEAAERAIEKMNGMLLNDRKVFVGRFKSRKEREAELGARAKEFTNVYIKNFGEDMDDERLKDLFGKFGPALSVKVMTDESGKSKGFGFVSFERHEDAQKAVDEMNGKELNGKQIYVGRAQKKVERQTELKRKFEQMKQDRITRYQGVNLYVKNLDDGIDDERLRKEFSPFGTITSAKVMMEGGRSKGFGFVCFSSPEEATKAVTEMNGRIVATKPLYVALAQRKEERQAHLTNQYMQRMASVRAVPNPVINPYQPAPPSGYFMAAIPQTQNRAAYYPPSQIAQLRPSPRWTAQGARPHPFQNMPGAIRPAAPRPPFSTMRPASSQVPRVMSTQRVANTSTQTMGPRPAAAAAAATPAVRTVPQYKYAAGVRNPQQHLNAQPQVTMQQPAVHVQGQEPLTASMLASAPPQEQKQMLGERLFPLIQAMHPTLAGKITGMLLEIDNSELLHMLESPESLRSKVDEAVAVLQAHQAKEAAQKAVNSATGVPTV
# The entries are a selection whose mix differs from that of the whole data set. Activity calls are given as the source filed them. No rule for the calls is given here.
# Biological target: Polyadenylate-binding protein 1 (Homo sapiens) (UniProt P11940)
# Assay: blockers of PABP interaction with poly(A) – biochemical, fluorescence polarization, uHTS, primary screen (AID 2014)
# Conditions: PABP-poly(A) RNA binding, at 35 µM, hits give high values
row,Compound,inhibition
1,Cc1c2c(nc3ccccc13)SC(C(Cl)Cl)C2 (stereo unspecified),inactive: -3.9%
2,O=C(OC1CN2CCC1CC2)C12CC3CC(CC(C3)C1)C2 (stereo unspecified),inactive: 4.3%
3,Cc1cc(=O)[nH]c(N[N+](=O)[O-])n1,inactive: 2.6%
4,COc1ccc2nc(NP(=O)(c3ccccc3)c3ccccc3)sc2c1,inactive: 16%
5,COc1cc(I)ccc1[As](=O)(O)O,inactive: 0.7%
6,COc1ccc(N/C(=N/P(=O)(N2CCOCC2)N2CCOCC2)N2CCOCC2)cc1,inactive: 10.3%
7,O=[As](O)(c1ccc(O)cc1)c1ccccc1O,inactive: 3.2%
8,C[As](=O)(O)c1cccc(C(=O)O)c1,inactive: 3%
9,Cc1ccc(OP(=O)(Nc2ccc([N+](=O)[O-])cn2)Oc2ccc(C)cc2)cc1,inactive: 3.4%
10,CC(C)(C)c1ccc(OP(C)(=O)Nc2ccc(SC(F)(F)F)cc2)cc1 (stereo unspecified),inactive: 4.8%
11,Cc1cccc(C)c1OP(C)(N)=O (stereo unspecified),inactive: -6.3%
12,O=[N+]([O-])c1ccc2c(c1)C=Nc1ccccc1O2,inactive: -7.9%
13,Cc1ccc2nc3c(c(C)c2c1)CC(C(Cl)Cl)S3 (stereo unspecified),inactive: -3.7%
14,CCOC(=O)c1ccc(NP(C)(=O)Oc2ccccc2)cc1 (stereo unspecified),inactive: 4.4%
15,ClCCSc1nnc(-c2cccnc2)o1,inactive: -9.2%
16,COc1ccccc1OP(C)(=O)Nc1ccc(C)cc1 (stereo unspecified),inactive: 3%
17,CC(C)c1ccc(OP(=O)(Nc2ccccn2)Oc2ccccc2F)cc1 (stereo unspecified),inactive: 6.8%
18,Cc1ccc(NP(C)(=O)Oc2ccccc2)c(C)c1 (stereo unspecified),inactive: -10.2%
19,COc1ccccc1OP(C)(=O)Nc1cc(Cl)ccc1C (stereo unspecified),inactive: 5.7%
20,CCN(CC)C(=S)SC(NC=O)C(Cl)(Cl)Cl (stereo unspecified),inactive: 13.4%
21,COc1ccc(OP(C)(=O)Nc2cccc(F)c2)cc1 (stereo unspecified),inactive: -2.8%
22,O=[N+]([O-])c1cc([N+](=O)[O-])c(-c2ccn[nH]2)s1,inactive: -5.4%
23,Cc1cc(C)cc(OP(C)(N)=O)c1 (stereo unspecified),inactive: -1.7%
24,CCCCOc1ccc(C(=O)NCC2(N3CCCCC3)CCCCC2)cc1OC,inactive: -5.1%
25,Cc1cc(SC(NC(=O)c2ccccc2)C(Cl)(Cl)Cl)nc(C(C)C)n1 (stereo unspecified),inactive: -2.4%
26,CP(=S)(Nn1cnnc1)Oc1ccccc1 (stereo unspecified),inactive: -2.1%

row,Compound,inhibition
1,CCOC(=O)Nc1cccc([As](=O)(O)O)c1,inactive: -4.2%
2,Cc1cc(SC(NC=O)C(Cl)(Cl)Cl)ncn1 (stereo unspecified),inactive: 4.5%
3,O=P(Nc1ccccn1)(c1cccc2ccccc12)c1cccc2ccccc12,inactive: -5.4%
4,COc1ccccc1OP(C)(=O)Nc1ccccc1 (stereo unspecified),inactive: 1%
5,CP(=O)(Nc1ccccc1Br)Oc1ccccc1 (stereo unspecified),inactive: 15.3%
6,O=[N+]([O-])c1ccc(Nc2ccc(Oc3ccc([N+](=O)[O-])cc3[N+](=O)[O-])cc2)c([N+](=O)[O-])c1,inactive: 4.3%
7,COP1(=S)c2c(C)nn(CCC#N)c2N=C(c2ccc(F)cc2)N1C (stereo unspecified),inactive: 3.4%
8,CP(=O)(Nc1ccc(SC(F)(F)F)cc1)Oc1ccc(Cl)cc1 (stereo unspecified),inactive: -0.3%
9,Cc1cccc(C)c1OP(C)(=O)Nc1ccc(SC(F)(F)F)cc1 (stereo unspecified),inactive: -2.4%
10,CP(=O)(Oc1ccccc1)OC(c1ccccc1)C(F)(F)F (stereo unspecified),inactive: 9.8%
11,CP(=O)(NC(=O)Nc1ccccc1)Oc1ccccc1 (stereo unspecified),inactive: -2.3%
12,O=C(COc1ccccc1)OC1CN2CCC1CC2 (stereo unspecified),inactive: -1.4%
13,CCc1ccc(OP(C)(=O)N2CCN(c3ccc([N+](=O)[O-])cc3)CC2)cc1 (stereo unspecified),inactive: 4.8%
14,Cc1cc(C)cc(OP(C)(=O)Nc2ccc(SC(F)(F)F)cc2)c1 (stereo unspecified),inactive: -20.4%
15,O=C(Nc1ccncc1[N+](=O)[O-])c1ccc([N+](=O)[O-])cc1[N+](=O)[O-],inactive: 2%
16,O=C(OC1CN2CCC1CC2)c1cccc([N+](=O)[O-])c1 (stereo unspecified),inactive: -7.1%
17,CCOP(C)(=S)SCC(=O)NC(C)C(=O)O (stereo unspecified),inactive: 6%
18,CCOC(=O)c1ccc(NP(C)(=O)Oc2ccc(OC)cc2)cc1 (stereo unspecified),inactive: -2.4%
19,CCOC(=O)c1ccc(NC(=O)C(C)(CCl)SC)cc1 (stereo unspecified),inactive: 10.6%
20,CCC(C)N(CC(C)C)C(=S)SC(NC(C)=O)C(Cl)(Cl)Cl (stereo unspecified),inactive: 33.1%
21,CP(=O)(Nc1ccccn1)Oc1ccc(Cl)cc1 (stereo unspecified),inactive: 0.7%
22,CCC1=CC2Cc3nc4ccc(Cl)cc4c(N)c3C(C1)C2 (stereo unspecified),inactive: -13.5%
23,O=P1(Nc2ccccn2)COc2ccccc2OC1,inactive: 6.2%
24,O=[N+]([O-])c1cc([N+](=O)[O-])c(-n2nnc3ccccc32)c([N+](=O)[O-])c1,inactive: -3.8%
25,CCOP(=O)(NC(=NC(C)c1ccccc1)NC(C)c1ccccc1)OCC (stereo unspecified),inactive: -3%
26,CCOP(=O)(Nc1ccc(C)cn1)OCC,inactive: -3%

row,Compound,inhibition
1,Clc1n[nH]nc1-c1nn[nH][15n]1,inactive: 12.8%
2,CC(C)(C)C(=O)NC(Sc1ncccn1)C(Cl)(Cl)Cl (stereo unspecified),inactive: 3.5%
3,CN(C(=O)Cc1ccc(Cl)c(Cl)c1)[C@@H]1CCCC[C@H]1N1CCCC1,inactive: 4.4%
4,CC(C)/C=N\N=C(\N)N[N+](=O)[O-],inactive: 4.4%
5,O=[As](O)(c1ccccc1Br)c1ccccc1Br,inactive: -4.2%
6,Cc1nc2ccc3ccccc3c2s1.O=[N+]([O-])c1cc([N+](=O)[O-])c(O)c([N+](=O)[O-])c1,inactive: 28.1%
7,Cc1nn(-c2ccccc2)c2c1P(=O)(N1CCOCC1)N(C)C(c1ccccc1)=N2 (stereo unspecified),inactive: 7.9%
8,Cc1ccc(C(=O)OC2CN3CCC2CC3)cc1 (stereo unspecified),inactive: 10.7%
9,CC1CCC(C(C)C)C(OP(=O)(Nc2ccccn2)c2ccccc2)C1 (stereo unspecified),inactive: -0.2%
10,COc1cc(C2NCCC3(OCCO3)C2(C)C)cc(OC)c1OC.O=[N+]([O-])c1cc([N+](=O)[O-])c(O)c([N+](=O)[O-])c1 (stereo unspecified),inactive: -6.6%
11,CN(C)C1(CNC(=O)c2ccc(S(C)(=O)=O)cc2)CCCCC1,inactive: -5.2%
12,O=[N+]([O-])c1cc([N+](=O)[O-])c(Nc2nnnn2CCO)c([N+](=O)[O-])c1,inactive: 9.5%
13,CCOC(=O)C(CC)C1=NC(C)(C)Cc2ccccc21.O=[N+]([O-])c1cc([N+](=O)[O-])c(O)c([N+](=O)[O-])c1 (stereo unspecified),inactive: -4.7%
14,O=C(/C=C/c1ccccc1)OC1CN2CCC1CC2 (stereo unspecified),inactive: 8.2%
15,CN1CCCCC1COC(=O)C1(O)c2ccccc2CCc2ccccc21 (stereo unspecified),inactive: -8.1%
16,COc1ccccc1OP(C)(=O)Nc1c(C)cccc1C (stereo unspecified),inactive: -3.1%
17,O=P1(Nc2ncccn2)COc2ccccc2OC1,inactive: 17%
18,CCCOc1ccc(NP(C)(=O)Oc2ccc(Cl)cc2)cc1 (stereo unspecified),inactive: -9.2%
19,CP(=O)(Nc1ccc(SC(F)(F)F)cc1)Oc1ccccc1 (stereo unspecified),inactive: 3.9%
20,Nc1cccc([As](=O)(O)c2ccccc2)c1,inactive: 8.5%
21,O=[As](O)(c1cccs1)c1cccs1,inactive: 1.3%
22,Cc1ccc(OCC(=O)OC2CN3CCC2CC3)cc1 (stereo unspecified),inactive: 11%
23,O=P1(Nc2ccc(Br)cn2)COc2ccccc2OC1,inactive: 3.7%
24,O=C(O)c1cccc(Nc2c([N+](=O)[O-])cc([N+](=O)[O-])cc2[N+](=O)[O-])c1,inactive: 5.6%
25,CCOP1(=S)c2c(C)nn(CCC#N)c2N=C(c2ccccc2F)N1C (stereo unspecified),inactive: 1.9%
26,O=P(Nc1nccs1)(Oc1ccccc1)Oc1ccccc1,inactive: 9.9%

row,Compound,inhibition
1,O=P(Nc1nccs1)(c1ccccc1)c1nc2ccccc2s1 (stereo unspecified),inactive: 44.8%
2,O=C(O)COc1ccc([As](=O)(O)O)cc1[N+](=O)[O-],inactive: -1.1%
3,Nc1ccccc1[As](=O)(O)c1ccccc1,inactive: 7%
4,NC(=O)Nc1ccc([As](=O)(O)O)cc1,inactive: -6.2%
5,CCOP1(=S)c2c(C)nn(CCC#N)c2N=C(c2ccc(F)cc2)N1C (stereo unspecified),inactive: -3.1%
6,CN(C(=O)Cc1ccccc1)[C@@H]1CC[C@]2(CCCO2)C[C@H]1N1CCCC1,inactive: 15.9%
7,O=[N+]([O-])c1ccc2c(c1)nnn2O,inactive: 3.1%
8,CC1=NCCc2c1[nH]c1ccccc21.O=[N+]([O-])c1cc([N+](=O)[O-])c(O)c([N+](=O)[O-])c1,inactive: 0.2%
9,O=C(OC1CN2CCC1CC2)c1ccc(Cl)cc1 (stereo unspecified),inactive: 6.1%
10,O=[As](O)(O)c1cccnc1,inactive: 7.5%
11,COc1cc(C(=O)NCC2(N3CCOCC3)CCCCC2)cc(Cl)c1OC(C)C,inactive: -7.1%
12,CS(=O)(=O)c1ccc(Cl)c(NC(=O)COC(=O)C(O)(c2ccccc2)c2ccccc2)c1,inactive: -3.4%
13,COc1ccccc1OP(C)(=O)Nc1cccc(Br)c1 (stereo unspecified),inactive: 2.5%
14,Cc1cccc(OCC(=O)OC2CN3CCC2CC3)c1 (stereo unspecified),inactive: 0.6%
15,O=[As](O)(c1cccc(O)c1)c1cccc(O)c1,inactive: -3%
16,Cc1cc(C)cc(OP(C)(=O)Nc2ccc(C)cc2C)c1 (stereo unspecified),inactive: -4.7%
17,CCOC(=O)c1ccc(NP(C)(=O)Oc2cc(C)cc(C)c2)cc1 (stereo unspecified),inactive: -7.2%
18,Cc1cc(C)cc(OP(C)(=O)Nc2ccccn2)c1 (stereo unspecified),inactive: -1.9%
19,CP(=O)(Nc1cccc(Br)c1)Oc1ccccc1 (stereo unspecified),inactive: 11.8%
20,Cc1ccc(NCCc2c([N+](=O)[O-])cc([N+](=O)[O-])cc2[N+](=O)[O-])cc1,inactive: -6.4%
21,Cc1ccc(C)c(NP(C)(=O)Oc2ccccc2)c1 (stereo unspecified),inactive: 0.8%
22,CCCOP(=S)(Nc1nc(N)cc(=O)[nH]1)OCCC,inactive: 8%
23,CCOP(=O)(Nc1cccc2ccccc12)OCC,inactive: -1.1%
